# Data taken from ChEMBL document CHEMBL1938260, “Differential signaling properties at the kappa opioid receptor of 12-epi-salvinorin A and its analogues” (2012).
# Amino acid sequences for entries named in this document (tags omitted). A change or cut given only in a name is not applied to a line headed by its entry.
# UniProt P41145: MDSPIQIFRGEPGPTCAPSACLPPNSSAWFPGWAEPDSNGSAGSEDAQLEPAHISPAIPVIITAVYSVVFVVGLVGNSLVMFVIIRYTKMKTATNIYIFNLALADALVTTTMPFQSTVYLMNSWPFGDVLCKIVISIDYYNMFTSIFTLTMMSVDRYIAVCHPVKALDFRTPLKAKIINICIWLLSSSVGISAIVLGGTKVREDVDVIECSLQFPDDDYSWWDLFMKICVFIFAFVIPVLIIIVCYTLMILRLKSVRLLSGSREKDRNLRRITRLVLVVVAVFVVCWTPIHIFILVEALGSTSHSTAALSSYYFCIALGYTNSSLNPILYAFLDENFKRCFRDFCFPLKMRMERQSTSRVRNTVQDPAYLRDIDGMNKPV
# UniProt P33535, whole entry, looked up: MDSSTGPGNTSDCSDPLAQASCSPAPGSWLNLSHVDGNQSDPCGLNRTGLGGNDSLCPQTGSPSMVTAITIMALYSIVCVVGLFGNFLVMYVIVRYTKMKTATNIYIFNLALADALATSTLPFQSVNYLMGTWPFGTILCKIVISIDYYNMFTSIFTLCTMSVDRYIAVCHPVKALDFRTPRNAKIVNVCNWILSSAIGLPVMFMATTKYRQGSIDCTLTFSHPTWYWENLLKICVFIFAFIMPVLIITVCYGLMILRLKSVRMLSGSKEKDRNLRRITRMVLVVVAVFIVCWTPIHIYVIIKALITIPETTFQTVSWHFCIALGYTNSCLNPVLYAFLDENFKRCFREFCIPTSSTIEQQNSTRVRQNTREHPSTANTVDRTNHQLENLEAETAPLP
# Key:
# [1] = biological target: T1, Kappa-type opioid receptor (Homo sapiens, UniProt P41145); assay: Displacement of [3H]diprenorphine from human KOPR expressed in CHO cells
# Mu-type opioid receptor = Mu-type opioid receptor (Rattus norvegicus, UniProt P33535); assay: Displacement of [3H]diprenorphine from rat MOPR expressed in CHO cells
# [2] = biological target: T1, Kappa-type opioid receptor; assay: Agonist activity at human KOPR expressed in U2OS cells assessed as beta-arrestin2 recruitment after 90 mins by DiscoveRx PathHunter assay
# [3] = biological target: T1, Kappa-type opioid receptor; assay: Agonist activity at human KOPR expressed in CHO cells assessed as [35S]GTPgammaS binding after 60 mins by liquid scintillation counting
SMILES,Ki [1],Ki (Mu-type opioid receptor),EC50 [2],EC50 [3]
COC(=O)[C@@H]1C[C@H](OC(C)=O)C(=O)[C@H]2[C@@]1(C)CC[C@H]1C(=O)O[C@@H](c3cc(Br)oc3Br)C[C@]21C,40 nM,318 nM,–,–
COCO[C@H]1C[C@@H](C(=O)OC)[C@]2(C)CC[C@H]3C(=O)O[C@@H](c4ccoc4)C[C@]3(C)[C@H]2C1=O,4.4 nM,–,–,–
CCOCO[C@H]1C[C@@H](C(=O)OC)[C@]2(C)CC[C@H]3C(=O)O[C@@H](c4ccoc4)C[C@]3(C)[C@H]2C1=O,2.5 nM,–,123 nM,9.5 nM
